Legend:
CDK13 = CDK13 (Homo sapiens, UniProt Q14004); assay: Western blot degradation of CDK13 (Example 2); details: read-out: CDK13 degradation Activity; DC50 classes; cell line not given
Protocol: (§1) Western blot was used to determine the degradation of CDK12/13 protein in leukemia cells KASUMI-1, MV4-11, and Jurkat. The two compounds with the best degradation effects were further validated for their ability to degrade CDK12/13 protein in breast cancer cells MDA-MB-231 using a concentration gradient.
(§2) • Cell lines: KASUMI-1, MV4-11, Jurkat, or MDA-MB-231 • Culture medium: DMEM/RIPM-1640+10% Hyclone serum • Compound dissolution method: Compounds were dissolved in DMSO to prepare a 50 mM stock solution, and then diluted to the corresponding concentrations.
(§3) (1) In vitro cell culture: The selected cells were cultured in a 37 °C constant temperature incubator with 5% CO2. Once the cell density reached 70-90%, they were passaged for subsequent experiments.
(§4) (2) Cell seeding: Cells were digested, and the cell suspension was transferred to a 1.5 mL Eppendorf tube. After centrifugation at 1,000 rpm for 5 min, the cells were resuspended in 2 mL of culture medium and counted. The cell suspension was seeded in a 24-well plate at a density of 200,000 cells per well and allowed to adhere for 8-12 h.
(§5) (3) Compound treatment: The 50 mM compound stock solution was diluted with cell culture medium to a final concentration of 0.01 μM-3 μM. Cells were incubated in a 37 °C incubator with 5% CO2 for 3 h-48 h. […]
(§6) At the end of the treatment time, the cells were collected and washed once with PBS. […] After centrifugation at 12,000 rpm at room temperature for 30 min, the supernatant was transferred to a new EP tube for protein quantification.
(§7) The exposure results were quantitatively analyzed using Image J software. First, the grayscale values of the bands were calculated using Image J. Then, the grayscale value of the target protein was divided by the grayscale value of the internal reference protein for normalization. […]
(§8) In the figures, CDK12 and CDK13 are the target proteins under study, and β-Actin and GAPDH are the internal reference proteins. Internal reference proteins are used to indicate the total protein amount in each experimental group for quantitative analysis.

Protein sequences, listed by entry. Tags and fused reporters are not part of them.
UniProt Q14004, whole entry: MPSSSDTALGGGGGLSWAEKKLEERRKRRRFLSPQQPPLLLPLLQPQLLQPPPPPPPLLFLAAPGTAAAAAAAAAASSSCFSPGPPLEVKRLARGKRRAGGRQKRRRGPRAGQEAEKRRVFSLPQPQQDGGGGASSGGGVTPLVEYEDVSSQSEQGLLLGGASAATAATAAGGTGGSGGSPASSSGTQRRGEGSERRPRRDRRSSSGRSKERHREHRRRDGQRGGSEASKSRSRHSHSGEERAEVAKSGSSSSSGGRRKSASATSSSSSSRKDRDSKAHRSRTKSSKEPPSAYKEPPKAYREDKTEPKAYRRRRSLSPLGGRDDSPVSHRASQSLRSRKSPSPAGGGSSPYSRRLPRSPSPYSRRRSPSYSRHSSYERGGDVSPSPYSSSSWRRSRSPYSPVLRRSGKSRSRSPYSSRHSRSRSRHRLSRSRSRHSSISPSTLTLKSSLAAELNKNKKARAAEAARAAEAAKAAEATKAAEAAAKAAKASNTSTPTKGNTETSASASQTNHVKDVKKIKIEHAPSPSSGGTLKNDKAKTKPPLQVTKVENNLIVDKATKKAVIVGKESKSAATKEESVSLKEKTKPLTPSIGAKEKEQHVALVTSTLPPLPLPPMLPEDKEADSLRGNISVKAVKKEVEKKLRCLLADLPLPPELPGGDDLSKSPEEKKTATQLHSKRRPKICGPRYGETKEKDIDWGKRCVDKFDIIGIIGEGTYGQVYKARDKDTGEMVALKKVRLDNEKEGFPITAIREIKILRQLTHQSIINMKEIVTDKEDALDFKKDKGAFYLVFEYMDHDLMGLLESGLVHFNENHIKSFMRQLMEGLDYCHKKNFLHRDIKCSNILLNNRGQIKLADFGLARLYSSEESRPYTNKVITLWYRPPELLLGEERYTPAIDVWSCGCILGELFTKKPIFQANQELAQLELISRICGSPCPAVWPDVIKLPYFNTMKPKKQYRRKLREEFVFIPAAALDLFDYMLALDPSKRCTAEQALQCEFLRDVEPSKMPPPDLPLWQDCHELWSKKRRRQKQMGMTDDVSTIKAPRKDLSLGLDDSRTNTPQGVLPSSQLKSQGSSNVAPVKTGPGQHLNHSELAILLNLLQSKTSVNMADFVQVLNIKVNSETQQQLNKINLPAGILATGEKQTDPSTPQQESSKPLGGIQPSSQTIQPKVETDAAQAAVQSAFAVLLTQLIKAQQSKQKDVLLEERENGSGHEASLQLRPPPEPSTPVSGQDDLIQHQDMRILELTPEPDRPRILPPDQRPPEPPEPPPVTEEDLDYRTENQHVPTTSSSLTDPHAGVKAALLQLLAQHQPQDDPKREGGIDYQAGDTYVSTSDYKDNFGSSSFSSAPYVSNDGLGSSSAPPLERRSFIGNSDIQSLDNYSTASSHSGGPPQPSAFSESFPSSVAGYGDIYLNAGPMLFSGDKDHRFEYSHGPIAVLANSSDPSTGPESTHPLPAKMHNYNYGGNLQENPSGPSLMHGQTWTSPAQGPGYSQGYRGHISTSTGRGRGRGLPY
UniProt Q9NYV4, whole entry: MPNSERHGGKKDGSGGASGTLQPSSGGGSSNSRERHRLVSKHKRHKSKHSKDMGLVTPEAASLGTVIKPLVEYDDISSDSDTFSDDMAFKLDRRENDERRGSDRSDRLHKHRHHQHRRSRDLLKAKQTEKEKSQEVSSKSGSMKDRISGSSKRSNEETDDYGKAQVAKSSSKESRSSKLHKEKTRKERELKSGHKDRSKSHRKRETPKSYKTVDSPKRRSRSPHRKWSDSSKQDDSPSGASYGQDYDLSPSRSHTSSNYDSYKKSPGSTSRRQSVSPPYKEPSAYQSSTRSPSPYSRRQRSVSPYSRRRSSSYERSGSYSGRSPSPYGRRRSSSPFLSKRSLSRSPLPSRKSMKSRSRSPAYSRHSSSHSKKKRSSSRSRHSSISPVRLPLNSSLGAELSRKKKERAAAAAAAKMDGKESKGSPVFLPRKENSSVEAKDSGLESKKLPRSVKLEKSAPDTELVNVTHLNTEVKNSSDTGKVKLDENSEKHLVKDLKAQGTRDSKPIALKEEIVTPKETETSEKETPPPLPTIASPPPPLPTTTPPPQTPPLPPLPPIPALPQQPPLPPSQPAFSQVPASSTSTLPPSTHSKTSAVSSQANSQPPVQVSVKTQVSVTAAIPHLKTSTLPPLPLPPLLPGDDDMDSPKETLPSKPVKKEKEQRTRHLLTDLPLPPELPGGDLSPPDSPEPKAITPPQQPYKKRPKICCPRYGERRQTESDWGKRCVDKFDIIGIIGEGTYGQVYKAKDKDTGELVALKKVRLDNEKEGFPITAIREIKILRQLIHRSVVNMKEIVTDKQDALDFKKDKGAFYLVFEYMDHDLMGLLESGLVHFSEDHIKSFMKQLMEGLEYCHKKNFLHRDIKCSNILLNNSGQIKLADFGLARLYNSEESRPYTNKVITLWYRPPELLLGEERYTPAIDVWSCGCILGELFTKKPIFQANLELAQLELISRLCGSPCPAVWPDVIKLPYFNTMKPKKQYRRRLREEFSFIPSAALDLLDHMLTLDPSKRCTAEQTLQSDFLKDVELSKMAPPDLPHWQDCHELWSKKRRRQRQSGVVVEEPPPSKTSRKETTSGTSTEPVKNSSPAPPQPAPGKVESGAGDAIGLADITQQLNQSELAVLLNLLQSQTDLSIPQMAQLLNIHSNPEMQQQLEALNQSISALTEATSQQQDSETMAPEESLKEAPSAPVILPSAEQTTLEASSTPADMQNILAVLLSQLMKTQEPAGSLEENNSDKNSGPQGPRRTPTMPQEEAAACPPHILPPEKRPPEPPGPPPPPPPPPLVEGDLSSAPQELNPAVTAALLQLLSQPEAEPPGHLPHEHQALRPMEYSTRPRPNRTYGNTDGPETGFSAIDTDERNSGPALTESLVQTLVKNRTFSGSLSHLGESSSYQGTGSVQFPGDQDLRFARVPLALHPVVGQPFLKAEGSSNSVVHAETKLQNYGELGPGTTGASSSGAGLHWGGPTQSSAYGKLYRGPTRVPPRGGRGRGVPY
UniProt O75909, whole entry partner: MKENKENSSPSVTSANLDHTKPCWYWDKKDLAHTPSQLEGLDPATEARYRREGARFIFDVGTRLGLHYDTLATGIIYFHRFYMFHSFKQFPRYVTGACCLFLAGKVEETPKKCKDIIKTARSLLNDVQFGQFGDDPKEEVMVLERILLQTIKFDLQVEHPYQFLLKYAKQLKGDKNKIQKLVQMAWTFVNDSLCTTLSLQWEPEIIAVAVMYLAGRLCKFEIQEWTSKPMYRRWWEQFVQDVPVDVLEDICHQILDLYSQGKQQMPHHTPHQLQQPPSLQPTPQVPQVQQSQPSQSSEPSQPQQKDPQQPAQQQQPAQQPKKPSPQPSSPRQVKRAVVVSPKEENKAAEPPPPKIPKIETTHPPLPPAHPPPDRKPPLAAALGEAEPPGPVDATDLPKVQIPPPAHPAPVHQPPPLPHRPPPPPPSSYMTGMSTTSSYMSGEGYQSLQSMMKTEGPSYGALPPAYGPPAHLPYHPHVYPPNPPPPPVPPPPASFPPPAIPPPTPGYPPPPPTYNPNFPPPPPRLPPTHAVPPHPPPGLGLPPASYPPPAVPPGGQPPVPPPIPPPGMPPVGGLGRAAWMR

CDK12 = CDK12 (Homo sapiens, UniProt Q9NYV4); assay: Western blot degradation of CDK12 (Example 2); details: read-out: CDK12 degradation Activity; DC50 classes; cell line not given
Protocol: as §1, §2, §3, §4, §5, §6, §7, §8

DC50 (CDK13)	DC50 (CDK12)	SMILES
3000 to 10000 nM	1000 to 3000 nM	N#Cc1ccc(N[C@H]2CC[C@H](N(C(=O)NCc3ccccc3)c3ccc(-c4ccc(OCCOCCOCCOCCNc5cccc6c5C(=O)N(C5CCC(=O)NC5=O)C6=O)nc4)cc3)CC2)nc1 (stereo partly drawn)
1000 to 3000 nM	1000 to 3000 nM	N#Cc1ccc(N[C@H]2CC[C@H](N3C(=O)N(Cc4ccccc4)Cc4cc(-c5ccc(OCCOCCOCCNc6cccc7c6C(=O)N(C6CCC(=O)NC6=O)C7=O)nc5)ccc43)CC2)nc1 (stereo partly drawn)
1000 to 3000 nM	1000 to 3000 nM	Cc1ncsc1-c1ccc([C@H](C)NC(=O)[C@@H]2C[C@@H](O)CN2C(=O)[C@@H](NC(=O)CN2CCN(c3ccc(-c4ccc5c(c4)CN(Cc4ccccc4)C(=O)N5[C@H]4CC[C@H](Nc5ccc(C#N)cn5)CC4)cn3)CC2)C(C)(C)C)cc1

From patent US20260327204A1, “DEGRADERS OF CYCLIN-DEPENDENT KINASE 12/13, COMPOSITIONS, AND USES THEREOF” (ZHEJIANG UNIVERSITY, priority 2023, published 2026)
